# Compound activity: PubChem BioAssay, National Center for Advancing Translational Sciences (NCATS)
# Shown are actives, neighbours in structure and some others; about 2.3% of the full set was active somewhere.
# A549 viability: kills or reduces viability of A549 cells in Nrf2 counter-screen; A549 ARE-Fluc cells, CellTiter-Fluor viability, 18-24 h; Potency, µM (top dose mostly 46 µM), for the others: at the top dose activity change, negative = cytotoxicity, hits mostly inhibitors; actives 0.16% (n = 390,000); note: potency is the fitted concentration of half-maximal effect; % is set by controls: 0 for no effect and ±100 for the full control effect
#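 Cytotoxicity counterscreen: CellTiter-Fluor fluorescence was measured in A549 ARE_Fluc cells after 18-24 h of compound exposure in a concentration series. The subsequent BugLite luminescent read reports ARE-luciferase activity.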
# miR-21 reporter: raises the signal of a miR-21 reporter; HeLa miR-21 FLuc reporter, luciferase, 48 h; Potency, µM (series often up to 38.3 µM), inactives show top-dose reporter change, positive = more light; 340,000 tested, under 10 active; active = well fitted rising curve with a large enough effect; inconclusive = small, poorly fitted or top-dose-only effect; inactive = no such curve, though single readings can be large or run the other way;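 also: % of control where 0% means no effect; miR-21 action dims this reporter so a rising signal means less miR-21 action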
#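 HeLa cells stably expressing CMV-driven firefly luciferase with a downstream miR-21 binding sequence, endogenously expressing miR-21, were treated with titrations (up to about 40uM final) for 48 hours at 37 degree Celsius. Luciferase luminescence was read after lysis.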
# Nrf2 inh: Nrf2 pathway inhibition; AID 504444; Potency, µM (highest dose often 46 µM), for the others: at the top dose activity change, negative = inhibition, actives largely listed as inhibitors; A549 ARE-Fluc reporter, luciferase luminescence, 18-24 h; actives 2.1% (n = 360,000); note: potency is the fitted concentration of half-maximal effect; % is set by controls: 0 for no effect and ±100 for the full control effect; nearly all actives have a fitted effect of over 60% in size
#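 Nrf2 activity is the BugLite luminescence, read 15 min after reagent at room temperature, following CellTiter-Fluor cytotoxicity readout (30 min, 37C). Compound titrations were applied for 18-24 h to 5000 A549 ARE_Fluc cells/well in 5% FBS OPTI-MEM.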
# Mito fusion yeast: inhibitors of mitochondrial division or activators of mitochondrial fusion; S. cerevisiae fusion-defective mutant growth rescue, CellTiterGlo 48 h; Potency, µM (highest dose often 46.1 µM), for inactives: at the top dose growth rescue (activation), most hits filed as activators; actives 0.23% (n = 320,000); AID 485298; note: potency is the fitted concentration of half-maximal effect; % of control where 0% means no effect; nearly all actives have a fitted effect of over 45% in size
#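 Luminescent cell viability in 1536-well qHTS format served as the measure of rescued growth in ts fusion-mutant S. cerevisiae cultured on non-fermentable YPEG for 48 hours at 37C.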
# Nrf2 ARE act: activators of Nrf2 (ARE) signaling. AREc32 ARE-luciferase reporter (MCF7-derived line), luminescence, 24 h. Potency, µM (doses to about 46.1 µM), inactives show at the highest dose activation, most hits filed as activators. actives 0.31% (n = 410,000). AID 624171; note: potency is the fitted concentration of half-maximal effect; % of control where 0% means no effect; nearly all actives have a fitted effect of over 65% in size
#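 For detection, Steady-Glo was added and plates sat 30 min at RT; before that, AREc32_Fluc cells grown overnight in OPTI-MEM/5% FBS had been treated with 23 nL compound for 24 hr at 37 deg C.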
# Active calls of the source: *; ? = inconclusive; . = no result; ! = repeats disagree; [ ] = another dose, or the depositor's remark. Unless noted, calls come from the whole dose curve; as a rule, active = well fitted curve in the direction sought with a large enough effect; inconclusive = small, poorly fitted or top-dose-only effect, or another doubt; inactive = no such curve, though single readings can be large; an effect the other way counts as inactive or inconclusive.
canonical_smiles,A549 viability,miR-21 reporter,Nrf2 inh,Mito fusion yeast,Nrf2 ARE act
CCn1nc(C)c(C(=O)Nc2cc(Oc3cc(C)cc(C)c3)cc([N+](=O)[O-])c2)c1C,?,18%,21µM*,16%,2%
Cc1cccc(Oc2cc(NC(=O)c3ccccc3)cc([N+](=O)[O-])c2)c1,?,24%,13µM*,-1%,0%
Cc1nn(C)cc1C(=O)Nc1cc(Oc2ccc(Cl)cc2)cc([N+](=O)[O-])c1,?,-9%,.,0%,-1%
O=C(Nc1ccc([N+](=O)[O-])cc1Cl)c1cc(Cl)cc(Cl)c1O,-16%,.,?,.,.
COc1ccc(NS(=O)(=O)c2ccccc2)cc1NS(=O)(=O)c1ccccc1,-5%,.,-2%,.,.
Cc1ccc(-n2ncc3c(SCc4cccnc4)ncnc32)c(C)c1,-20%,5%,4.1µM*,-15%,3%
Cc1ccc(-n2ncc3c(N4CCCC4)ncnc32)c(C)c1,-5%,-49%,25%,2%,0%
COc1cccc(N2CCN(c3ncnc4c3cnn4-c3ccc(C)cc3C)CC2)c1,?,?,18µM*,1%,-5%
COc1ccc(C2c3c(N)nc(CCCc4ccccc4)nc3Oc3ccc4ccccc4c32)cc1OC (stereo not drawn),-11%,.,-9%,.,.
Cn1cc(S(=O)(=O)N2CCCC2)cc1C(=O)Nc1ccc(C(F)(F)F)cc1,17%,-2%,6%,.,5%
O=[N+]([O-])c1ccccc1CN1CCN(S(=O)(=O)c2ccccc2)CC1,-5%,.,16µM*,.,0%
NNc1nc(-c2ccccc2)nc2sc3c(c12)CCCC3,8%,-69%,?,12%,1.4µM*
Cc1csc(NC(=O)Cc2coc3cc(C)c(C(C)C)cc23)n1,-28%,26%,3%,15%,0%
Cc1cc2occ(CC(=O)NCc3cccs3)c2cc1C(C)C,14%,-4%,-8%,16µM*,0%
COc1cccc(-c2nnc3n(Cc4ccccc4Cl)c(=O)c4ccccc4n23)c1O,7%,-1%,-1%,.,3%
Cc1cccc2cc(-c3ccccc3)c(-c3ccccc3)c[n+]12,-10%,?,23µM*,7%,0%
Cc1cc(NC(=O)c2ccccc2F)n(-c2nc3ccccc3[nH]2)n1,-1%,-16%,-29%,19%,9%
Cc1cc(NC(=O)c2c(F)cccc2F)n(-c2nc3ccccc3[nH]2)n1,?,-1%,?,15%,-2%
Cc1cc(Nc2ccccc2)n(-c2nc3ccccc3[nH]2)n1,-8%,20%,16µM*,9%,10%
Cc1nn(-c2nc3ccccc3[nH]2)c(=O)c2ccccc12,-4%,?,1.3µM*,-46%,-2%[9.22 µM]
Cc1cc(NC(=O)c2c(F)cccc2Cl)n(-c2nc3ccccc3[nH]2)n1,-18%,7%,15µM*,13%,-1%
Cc1cccc(-n2c(=O)c3c4c(sc3n3cnnc23)CCCC4)c1,-14%,-15%,-19%,.,-2%
CCN(CCCNC(=O)c1ccc(Sc2ccc(F)cc2)c(NC(C)=O)c1)c1ccccc1,-5%,9%,.,.,0%
CCc1ccc(NC(=O)C2=CC(c3ccc(OC)c(OC)c3)=NS(=O)(=O)N2C)cc1,-20%,27%,23µM*,-3%,0%
COc1ccc(C2=NS(=O)(=O)N(C)C(C(=O)N3CCc4ccccc4C3)=C2)cc1OC,-28%,26%,15µM*,-3%,4%
Cc1ccc2[nH]c(=O)c(CN(CCO)Cc3nnnn3Cc3ccccc3)cc2c1,4%,.,-14%,.,.
CCN(CC)S(=O)(=O)c1cccc(C(=O)N/N=C(\C)c2ccc(O)cc2O)c1,?,15%,10µM*,7%,-1%
CCN(CC)S(=O)(=O)c1cccc(C(=O)N/N=C/c2ccc(O)c(O)c2O)c1,-2%,-7%,-28%,2%,0%
O=[N+]([O-])c1ccc(Sc2cc[n+]([O-])c3ccccc23)c([N+](=O)[O-])c1,?,-4%,16µM*,-13%,?
NS(=O)(=O)c1ccc(Cc2ncc(C(F)(F)F)cc2Cl)s1,?,-2%,21µM*,1%,12%

# 5 entries from above, sorted by number of heavy atoms, ascending:
canonical_smiles,A549 viability,miR-21 reporter,Nrf2 inh,Mito fusion yeast,Nrf2 ARE act
Cc1cccc2cc(-c3ccccc3)c(-c3ccccc3)c[n+]12,-10%,?,23µM*,7%,0%
O=[N+]([O-])c1ccccc1CN1CCN(S(=O)(=O)c2ccccc2)CC1,-5%,.,16µM*,.,0%
Cc1cc(NC(=O)c2c(F)cccc2F)n(-c2nc3ccccc3[nH]2)n1,?,-1%,?,15%,-2%
Cc1nn(C)cc1C(=O)Nc1cc(Oc2ccc(Cl)cc2)cc([N+](=O)[O-])c1,?,-9%,.,0%,-1%
CCN(CCCNC(=O)c1ccc(Sc2ccc(F)cc2)c(NC(C)=O)c1)c1ccccc1,-5%,9%,.,.,0%

# The list continues:
canonical_smiles,A549 viability,miR-21 reporter,Nrf2 inh,Mito fusion yeast,Nrf2 ARE act
NNS(=O)(=O)c1ccc(Cc2ncc(C(F)(F)F)cc2Cl)s1,-6%,-1%,-4%,-2%,0%
COc1ccc(CCNS(=O)(=O)c2ccc(N3CCCC3=O)cc2)cc1,-11%,.,26µM*,.,1%
Cc1ccccc1NS(=O)(=O)c1ccc(N2CCCC2=O)cc1,-19%,18%,?,-6%,0%
Cc1nn(C)c(C)c1NS(=O)(=O)c1ccc(N2CCCC2=O)cc1,-14%,22%,15µM*,4%,0%
CN(Cc1ccco1)c1ncnc2ccc(-c3ccc4c(c3)OCCO4)cc12,.,.,.,8%,.
CCN(CC)CCCNC(=O)C(=O)Nc1ccc2nc3n(c(=O)c2c1)CCCCC3,-2%,-11%,?,.,-1%
CNC(=O)c1cnn2c(C)cc(C)nc12,-11%,.,-25%,.,.
Cc1cc(NC(=O)COC(=O)[C@@H](NS(=O)(=O)c2ccccc2)C(C)C)no1,4%,5%,11%,3%,-1%
CC(C)[C@H](NS(=O)(=O)c1ccccc1)C(=O)OCC(=O)Nc1ccccc1Sc1ccccc1,4%,-1%,8%,22µM*,4%
CN(Cc1cccs1)c1ncnc2ccc(-c3ccc4cnn(C)c4c3)cc12,?,.,-13%,.,.
CN(C)S(=O)(=O)c1ccc2[nH]cc(/C=C/c3nc4ccccc4c(=O)n3-c3ccccc3)c2c1,1%[1.84 µM],5%,10µM*,1%,0%
CCn1c(/C=C/c2c[nH]c3ccccc23)nc2ccccc2c1=O,1%,-62%,?,-2%,8%
CCN(CC)S(=O)(=O)c1ccc(NC(=O)CSc2nnc3c(n2)[nH]c2ccccc23)cc1,-5%,.,-18%,.,.
Cc1ccc(Cl)cc1NC(=O)Cn1c(=O)n(C(C)C)c(=O)c2oc3ccccc3c21,8%,3%,-2%,.,0%
COc1cc(CNC(=O)CCCCCCC(C)C)ccc1O,-2%,.,1%,18µM*!,-1%
COc1ccc(CCNC(=O)CCCCC(=O)NCCc2ccc(OC)c(OC)c2)cc1OC,0%,.,?,.,0%
O=C(Nc1ccc([N+](=O)[O-])cc1)Nc1ccc(OC(F)F)c(Cl)c1,?,?,21µM*,-17%,-1%
CS(=O)(=O)c1ccc(C(=O)OCC#CCSc2nnc(-c3cccc4ccccc34)o2)cc1,-7%,.,-2%,.,.
CCN(CC)S(=O)(=O)c1cccc(NC(=O)C2SC(=Nc3ccc(C)cc3C)C(C(=O)NC(C)COC)=C2N)c1 (stereo not drawn),?,13%,21µM*,9%,2%
CSC1(SC2=NCCN2)SC2(NCCN2)S1,7.3µM*,.,8.2µM*,.,24%
